Tests used:
Rhizoctonia solani = assay: Greenhouse suppression of damping off of cucumber seedlings in R. solani infested soil amended with plant extract; assay type: in vivo, Rhizoctonia solani AG-4, isolate Rs 23A; conditions: 12 seeds sown per pot, infested soil amended with 0.3% PE
cucumber seeds = conditions: in vivo
Experimental: Soil treatment: For each treatment, 300 g of dry greenhouse soli (Pro-mix, Premier Horticulture LTD, Red Hill, Pa.) was thoroughly mixed with Rhizoctonia inoculum and incubated for 15 days as described above. […] The infested soil treated with only the carrier solution served as an untreated control. Following the treatment, the soil was thoroughly stirred to mix the contents and incubated in a double polythene bag closed tightly in the dark at room temperature for four days for fumigation to occur. Following the incubation, the bag was opened to allow as much PE to dissipate as possible. This was done by sprinkling the surface soil with sterile water every other day, and stirring the soil once every day for seven days. For assay of effect on seed germination and phytotoxicity of the plant extracts, soil was treated with plant extract formulations alone.
Greenhouse studies: Treated soil from each treatment was distributed to 4-inch plastic pots into which 12 seeds of cucumbers (95-100% germination) were sown and lightly watered to keep soil moist. The treatments were color coded and pots were randomized across treatment. All plants were kept in a greenhouse between 20° C. (night) to 26° C. (day) with 14 h of light. […] Total number of seedlings without any sign of damping off in each pot was recorded and percentage of disease suppression were calculated four weeks after sowing cucumber seeds.

Row | SMILES | Avg. seed Germination (+ PE + R. solani) (Rhizoctonia solani) | % Seed germination (+ PE only) (cucumber seeds) [%] | Avg. seed germination (+ PE only) (cucumber seeds)
1 | CC(C)=CCC/C(C)=C/CO [Geraniol] | 9.33 | – | –
2 | C=CCN=C=S [Allyisothiocynate] | 10.67 | 86.10 | 10.33

From patent US8871280B1, “Compositions and methods for treating fungal activity in plants or soil” (The United States of America, as represented by the …, priority 2011, dated 2014)
